Activity calls are given as the source filed them. The calls are words filed in the database; no cut-off is given here.
How the values were obtained:
[1] = target: T1, Peroxisome proliferator-activated receptor alpha (Homo sapiens) (UniProt Q07869); assay: Agonist activity at Gal4-tagged human PPARalpha LBD expressed in HEK293T cells at 10 uM incubated for 24 hrs TR-FRET assay relative to control; format: cell-based; details: filed as agonist
T1 sequence (whole entry): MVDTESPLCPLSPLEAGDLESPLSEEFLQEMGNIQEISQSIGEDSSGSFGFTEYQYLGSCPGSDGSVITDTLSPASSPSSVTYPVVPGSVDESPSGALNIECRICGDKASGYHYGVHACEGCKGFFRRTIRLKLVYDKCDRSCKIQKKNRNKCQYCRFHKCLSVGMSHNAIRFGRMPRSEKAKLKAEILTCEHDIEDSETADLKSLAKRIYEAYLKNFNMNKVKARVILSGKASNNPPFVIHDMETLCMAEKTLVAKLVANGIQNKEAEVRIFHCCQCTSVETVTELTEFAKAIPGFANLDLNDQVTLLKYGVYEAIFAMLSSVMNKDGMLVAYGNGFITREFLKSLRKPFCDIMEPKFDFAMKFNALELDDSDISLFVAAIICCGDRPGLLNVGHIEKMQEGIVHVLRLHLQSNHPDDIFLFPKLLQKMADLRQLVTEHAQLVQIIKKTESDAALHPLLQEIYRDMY

[2] = tested on: Mus musculus; assay: (§1) Anti-inflammatory activity in DSS-induced acute enteritis mouse model assessed as lower spleen index at 150 mg/kg, po administered daily for 7 days and measured on day 8 in presence of 10 mg/kg 6-(2-(((5-cyclopropyl-3-(2-(trifluoromethoxy)phenyl)isoxazol-4-yl)methoxy)methyl)-7-azaspiro[3.5]nonan-7-yl)-1-ethyl-1H-indole-3-carboxylic acid; format: functional, organism-based; details: time 8.0 day
[3] = tested on: Mus musculus; assay: Anti-inflammatory activity in DSS-induced acute enteritis mouse model assessed as reduction body weight loss at 150 mg/kg, po administered daily for 7 days and measured on day 8; format: functional, organism-based; details: time 8.0 day
[4] = tested on: Mus musculus; assay: Anti-inflammatory activity in DSS-induced acute enteritis mouse model assessed as reduction disease score index at 150 mg/kg, po administered daily for 7 days and measured on day 8; format: functional, organism-based; details: time 8.0 day
[5] = tested on: Mus musculus; assay: Anti-inflammatory activity in DSS-induced acute enteritis mouse model assessed as increase in colon length at 150 mg/kg, po administered daily for 7 days and measured on day 8; format: functional, organism-based; details: time 8.0 day
[6] = tested on: Mus musculus; assay: as §1, with “increase in colon length” for “lower spleen index”; format: functional, organism-based; details: time 8.0 day
[7] = tested on: Mus musculus; assay: Anti-inflammatory activity in DSS-induced acute enteritis mouse model assessed as improvement in inflammatory cell infiltration at 150 mg/kg, po administered daily for 7 days and measured on day 8 by H and E staining based assay; format: functional, organism-based; details: time 8.0 day
[8] = tested on: Mus musculus; assay: Anti-inflammatory activity in DSS-induced acute enteritis mouse model assessed as improvement in mucosal damage at 150 mg/kg, po administered daily for 7 days and measured on day 8 by H and E staining based assay; format: functional, organism-based; details: time 8.0 day
[9] = tested on: Mus musculus; assay: Anti-inflammatory activity in DSS-induced acute enteritis mouse model assessed as increase in mucin production at 150 mg/kg, po administered daily for 7 days and measured on day 8 by immunohistochemical analysis; format: functional, organism-based; details: time 8.0 day
[10] = tested on: Mus musculus; assay: Anti-inflammatory activity in DSS-induced acute enteritis mouse model assessed as improvement in crypts deformation at 150 mg/kg, po administered daily for 7 days and measured on day 8 by H and E staining based assay; format: functional, organism-based; details: time 8.0 day
[11] = tested on: Mus musculus; assay: as §1, with “improvement in DAI score” for “lower spleen index”; format: functional, organism-based; details: time 8.0 day
[12] = tested on: Mus musculus; assay: Anti-inflammatory activity in DSS-induced acute enteritis mouse model assessed as reduction in body weight loss at 150 mg/kg, po administered daily for 7 days and measured on day 8 in presence of 10 mg/kg 6-(2-(((5-cyclopropyl-3-(2-(trifluoromethoxy)phenyl)isoxazol-4-yl)methoxy)methyl)-7-azaspiro[3.5]nonan-7-yl)-1-ethyl-1H-indole-3-carboxylic acid; format: functional, organism-based; details: time 8.0 day
[13] = tested on: Mus musculus; assay: Anti-inflammatory activity in DSS-induced acute enteritis mouse model assessed as improvement in goblet cell destruction at 150 mg/kg, po administered daily for 7 days and measured on day 8 by H and E staining based assay; format: functional, organism-based; details: time 8.0 day

Row | Activity [1] [%] | SMILES | Activity [2] | Activity [3] | Activity [4] | Activity [5] | Activity [6] | Activity [7] | Activity [8] | Activity [9] | Activity [10] | Activity [11] | Activity [12] | Activity [13]
1 | 72.6 | CCn1cc(C(=O)O)c2ccc(N3CCC4(CC3)CC(COCc3c(-c5ccccc5OC(F)(F)F)noc3C3CC3)C4)cc21 | – | – | – | – | – | – | – | – | – | – | – | –
2 | – | Nc1ccc(C(=O)O)c(O)c1 | Active | inactive | Active | Active | Active | Active | Active | Active | Active | Active | Active | Active

From ChEMBL document CHEMBL5518242, “Discovery and Optimization of Novel Nonbile Acid FXR Agonists as Preclinical Candidates for the Treatment of Inflammatory Bowel Disease” (J Med Chem, 2024)
